Experimental data taken from publication PMC5037430 (Scientific Reports, 2016).

Target: T1, glycolate oxidase (GO); hydroxyacid oxidase 1 (HAO1) (Homo sapiens, UniProt Q9UJM8)
T1 sequence (Q9UJM8 1-370): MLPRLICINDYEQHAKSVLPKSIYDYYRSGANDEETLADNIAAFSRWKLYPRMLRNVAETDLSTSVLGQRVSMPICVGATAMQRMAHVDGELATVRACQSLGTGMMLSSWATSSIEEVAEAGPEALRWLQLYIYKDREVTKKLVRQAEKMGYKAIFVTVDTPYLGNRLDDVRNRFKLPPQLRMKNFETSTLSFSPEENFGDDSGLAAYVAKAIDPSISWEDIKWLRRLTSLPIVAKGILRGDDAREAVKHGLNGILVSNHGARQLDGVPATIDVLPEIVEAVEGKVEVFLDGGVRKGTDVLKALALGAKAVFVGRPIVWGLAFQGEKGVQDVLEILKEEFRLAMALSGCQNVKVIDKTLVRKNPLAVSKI

Compound: [O]=[Cr](=[O])([OH])[O][Cr](=[O])(=[O])[OH] [Potassium dichromate]
- IC50: 96.6 nM
